How the values were obtained:
hepatocytes (liver) = conditions: rat, in vivo, po; cited from earlier work
[1] = system: hepatocytes of formalin-fixed liver tissues; conditions: rat, in vivo, po

O=NN1CCCC1 [NPYR, N-Nitrosopyrrolidine]
RDLMN test result (liver micronucleus induction), collagenase digestion method (hepatocytes (liver)): positive | RDLMN test result (liver micronucleus induction), formalin-fixed method [1]: positive
